Values of other authors, collected in patent US10653700B2, “Composition comprising a therapeutic agent and a respiratory stimulant and methods for the use thereof” (priority 2015, dated 2020).

Experiments:
opioid receptors = conditions: cited from earlier work
[1] = in vivo; cited from earlier work

COc1ccc2c3c1O[C@H]1C(=O)CC[C@H]4[C@@H](C2)N(C)CC[C@]314 [hydrocodone]
affinity to δ-opioid receptors compared with μ-opioid receptors (opioid receptors): six times lesser affinity | potency at binding to receptors relative to morphine (opioid receptors): one-tenth as potent as morphine | potency in analgesic properties relative to morphine [1]: 59% | relative milligram strength of hydrocodone to codeine [1]: 6 fold
